Data: patent publication US9714247B2, “Multiple kinase pathway inhibitors” (Mannkind Corporation, priority 2012, dated 2017)

By UniProt entry, the sequences of proteins in these tests, tags left out. Where a name states a change or a piece, a line headed by the entry shows the natural chain unless it says otherwise.
UniProt P12931, whole entry, looked up: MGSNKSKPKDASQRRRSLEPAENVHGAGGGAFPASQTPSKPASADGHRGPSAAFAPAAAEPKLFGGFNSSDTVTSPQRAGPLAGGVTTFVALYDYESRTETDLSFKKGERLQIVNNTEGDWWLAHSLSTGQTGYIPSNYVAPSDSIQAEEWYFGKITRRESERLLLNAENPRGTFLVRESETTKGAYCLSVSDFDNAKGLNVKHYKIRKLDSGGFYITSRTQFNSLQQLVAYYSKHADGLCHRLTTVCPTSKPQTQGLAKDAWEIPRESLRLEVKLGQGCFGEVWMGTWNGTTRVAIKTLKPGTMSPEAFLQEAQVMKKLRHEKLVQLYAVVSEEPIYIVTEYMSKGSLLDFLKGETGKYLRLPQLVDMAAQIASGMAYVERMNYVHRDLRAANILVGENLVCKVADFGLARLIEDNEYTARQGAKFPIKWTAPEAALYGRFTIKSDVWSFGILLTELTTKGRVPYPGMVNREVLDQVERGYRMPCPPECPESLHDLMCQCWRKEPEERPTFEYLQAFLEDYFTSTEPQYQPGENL
UniProt Q06187: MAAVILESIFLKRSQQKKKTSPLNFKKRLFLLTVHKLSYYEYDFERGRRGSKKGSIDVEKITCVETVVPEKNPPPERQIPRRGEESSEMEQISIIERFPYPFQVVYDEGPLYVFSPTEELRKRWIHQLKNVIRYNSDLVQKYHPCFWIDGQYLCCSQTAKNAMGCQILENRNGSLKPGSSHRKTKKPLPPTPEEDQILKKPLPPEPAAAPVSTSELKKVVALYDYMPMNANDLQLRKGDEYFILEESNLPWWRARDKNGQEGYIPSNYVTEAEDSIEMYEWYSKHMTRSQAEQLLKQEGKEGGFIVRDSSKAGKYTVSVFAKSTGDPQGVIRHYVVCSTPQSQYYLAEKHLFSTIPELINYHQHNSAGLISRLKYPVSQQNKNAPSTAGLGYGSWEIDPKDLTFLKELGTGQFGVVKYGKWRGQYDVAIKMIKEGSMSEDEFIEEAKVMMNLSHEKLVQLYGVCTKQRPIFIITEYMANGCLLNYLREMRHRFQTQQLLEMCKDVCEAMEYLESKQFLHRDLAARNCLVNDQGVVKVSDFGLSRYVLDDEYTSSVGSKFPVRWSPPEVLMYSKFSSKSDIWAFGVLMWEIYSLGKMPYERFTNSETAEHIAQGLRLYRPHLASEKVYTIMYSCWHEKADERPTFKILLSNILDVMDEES

molecular target: T1, Src (Homo sapiens (Human), UniProt P12931); assay: not given; details: read-out: Src IC50

Row | SMILES | IC50 [nM]
1 | CCn1c(=O)c(-c2cc(OC)ccc2F)cc2cnc(Nc3ccc(N(C)C4CCN(C)CC4)cn3)cc21 [Compound 119, 1-ethyl-3-(2-fluoro-5-methoxyphenyl)-7-((5-(methyl(1-methylpiperidin-4-yl)amino)pyridin-2-yl)amino)-1,6-naphthyridin-2(1H)-one] | < 100

molecular target: BTK (Homo sapiens (Human), UniProt Q06187); assay: not given; details: not given

Row | SMILES | IC50 [nM]
2 | O=c1c(-c2c(F)cccc2F)cc2cnc(Nc3ccc(F)cn3)cc2n1C1CCOCC1 [Compound 80, 3-(2,6-difluorophenyl)-7-((5-fluoropyridin-2-yl)amino)-1-(tetrahydro-2H-pyran-4-yl)-1,6-naphthyridin-2(1H)-one] | 100 to 1000
3 | O=c1c(-c2c(F)cccc2F)cc2cnc(Nc3ccc(F)cn3)cc2n1-c1ccccc1 [Compound 81, 3-(2,6-difluorophenyl)-7-((5-fluoropyridin-2-yl)amino)-1-phenyl-1,6-naphthyridin-2(1H)-one] | 100 to 1000
4 | CN1CCC(n2c(=O)c(-c3c(F)cccc3F)cc3cnc(Nc4ccc(F)cn4)cc32)C1 (stereo not drawn) [Compound 85, 3-(2,6-difluorophenyl)-7-((5-fluoropyridin-2-yl)amino)-1-(1-methylpyrrolidin-3-yl)-1,6-naphthyridin-2(1H)-one] | 1000 to 5000
5 | CCN(CC)CCOc1ccc(Nc2cc3c(cn2)cc(-c2ccccc2)c(=O)n3CC)cc1 [Compound 86] | 100 to 1000
6 | CCn1c(=O)c(-c2cc(SC)ccc2F)cc2cnc(Nc3ccc(N(C)C4CCN(C)CC4)cn3)cc21 [Compound 116, 1-ethyl-3-(2-fluoro-5-(methylthio)phenyl)-7-((5-(methyl(1-methylpiperidin-4-yl)amino)pyridin-2-yl)amino)-1,6-naphthyridin-2(1H)-one] | < 100
7 | CN1CC[C@@H](n2c(=O)c(-c3c(F)cccc3F)cc3cnc(Nc4ccc(F)cn4)cc32)C1 [Compound 152, (R)-3-(2,6-difluorophenyl)-7-((5-fluoropyridin-2-yl)amino)-1-(1-methylpyrrolidin-3-yl)-1,6-naphthyridin-2(1H)-one] | 100 to 1000

Continued, values first:

Row | IC50 [nM] | SMILES
8 | < 100 | O=c1c(-c2c(F)cccc2F)cc2cnc(Nc3ccc(F)cn3)cc2n1C1CCOC1 (single isomer, unassigned) [Compound 141, (S or R)-3-(2,6-difluorophenyl)-7-((5-fluoropyridin-2-yl)amino)-1-(tetrahydrofuran-3-yl)-1,6-naphthyridin-2(1H)-one]
9 | 100 to 1000 | O=c1c(-c2c(F)cccc2F)cc2cnc(Nc3ccc(F)cn3)cc2n1C1CCOC1 (stereo not drawn) [Compound 83, 3-(2,6-difluorophenyl)-7-((5-fluoropyridin-2-yl)amino)-1-(tetrahydrofuran-3-yl)-1,6-naphthyridin-2(1H)-one]

same assay, conditions: read-out: BTK IC50

Row | IC50 [nM] | SMILES
10 | < 100 | O=c1c(-c2c(F)cccc2F)cc2cnc(Nc3ccc(F)cn3)cc2n1C1CCOC1 (single isomer, unassigned) [Compound 142, (R or S)-3-(2,6-difluorophenyl)-7-((5-fluoropyridin-2-yl)amino)-1-(tetrahydrofuran-3-yl)-1,6-naphthyridin-2(1H)-one]
11 | < 100 | CN1CC[C@H](n2c(=O)c(-c3c(F)cccc3F)cc3cnc(Nc4ccc(F)cn4)cc32)C1 [Compound 150, (S)-3-(2,6-difluorophenyl)-7-((5-fluoropyridin-2-yl)amino)-1-(1-methylpyrrolidin-3-yl)-1,6-naphthyridin-2(1H)-one]

molecular target: T1, Src; assay: biochemical; details: not given

Row | SMILES | IC50 [nM]
12 | CCn1c(=O)c(-c2cc(SC)ccc2F)cc2cnc(Nc3ccc(N(C)C4CCN(C)CC4)cn3)cc21 [Compound 116, 1-ethyl-3-(2-fluoro-5-(methylthio)phenyl)-7-((5-(methyl(1-methylpiperidin-4-yl)amino)pyridin-2-yl)amino)-1,6-naphthyridin-2(1H)-one] | 100 to 1000
